Patent US8791099B2, “Transition metal complexes of corroles for preventing cardiovascular diseases or disorders” (Technion Research and Development Foundation Ltd., priority 2007, dated 2014)

Test system: LDL
Assay: Oxidation of LDL by peroxynitrite (SIN-1)
Details: 5 μM corrole, 250 μM SIN-1, absorbance at 234 nm

Structure (SMILES) | Effect on SIN-1 induced conjugated dienes formation in LDL
O=S(=O)(O)c1cc2[n]3c1C(c1c(F)c(F)c(F)c(F)c1F)=C1C=CC4=[N+]1[Fe-]31[n]3c(cc(S(=O)(=O)O)c3-2)C(c2c(F)c(F)c(F)c(F)c2F)=c2ccc([n]21)=C4c1c(F)c(F)c(F)c(F)c1F (centres unmarked) [1-Fe, 5,10,15-tris(pentafluorophenyl)-2,17-bis(sulfonic acid)-corrolato iron(III)] | totally preventing conjugated dienes formation
O=S(=O)(O)c1cc2[n]3c1C(c1c(F)c(F)c(F)c(F)c1F)=C1C=CC4=[N+]1[Mn-]31[n]3c(cc(S(=O)(=O)O)c3-2)C(c2c(F)c(F)c(F)c(F)c2F)=c2ccc([n]21)=C4c1c(F)c(F)c(F)c(F)c1F (centres unmarked) [1-Mn, 5,10,15-tris(pentafluorophenyl)-2,17-bis(sulfonic acid)-corrolato manganese(III)] | pro-oxidant
